Test results taken from publication PMC12293736, “Discovery of N-(6-Methoxypyridin-3-yl)quinoline-2-amine Derivatives for Imaging Aggregated α-Synuclein in Parkinson’s Disease with Positron Emission Tomography” (Cells, 2025).
pKd, pKi: −log10 of the molar value. Read-outs that look alike come from different tables or passages of the source.

Molecular target: PD brain tissues (Homo sapiens, UniProt P37840)
Experiment: homologous competitive binding assay of radiotracers, PD tissue
Details: tested as the radiolabelled form

- pKd (read-out: Kd, high affinity binding site, PD tissues, two-site binding): 8.85
- pKd (read-out: Kd, low affinity binding site, PD tissues, two-site binding): 6.70
- pKi (read-out: Ki, PD tissues, tritiated radioligand at 0.808 nM concentration): 8.27
- Bmax, high affinity binding site, PD tissues (two-site binding): 385 nM
- Bmax, low affinity binding site, PD tissues (two-site binding): 9.1 µM
SMILES: COc1ccc(Nc2ccc3cc(OC/C=C/I)ccc3n2)cn1 [Compound 8i]
